# scFv variants of Ab-95 (light chain) against a SARS-CoV-2 spike peptide

Target peptide (SARS-CoV-2 spike, HR2 region): PDVDLGDISGINAS

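The parent was found by panning a naive human phage display library on the peptide. Library AAYL52 holds single substitutions and randomly drawn double and triple substitutions in the CDRs. The assay is AlphaSeq: two haploid yeast populations carry antibody and antigen on their surface. Mating (16 h, 30 °C) was followed by selection of diploids and sequencing of their barcodes. A regression on co-assayed BCL2-family reference pairs converts the normalised counts of each replicate to an apparent Kd. The assay was run in three technical replicates.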

Each scFv is VH, a (GGGGS)3 linker, VL, as in the parent Ab-95, and differs from it in the CDRs of the light chain only.
VH: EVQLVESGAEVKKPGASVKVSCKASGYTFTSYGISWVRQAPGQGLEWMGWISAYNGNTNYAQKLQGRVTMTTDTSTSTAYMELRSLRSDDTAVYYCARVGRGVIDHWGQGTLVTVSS
VL: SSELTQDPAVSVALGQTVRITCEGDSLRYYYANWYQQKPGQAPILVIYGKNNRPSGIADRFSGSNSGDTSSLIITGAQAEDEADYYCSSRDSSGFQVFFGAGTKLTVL

Each variant's VL is given in full. All variants listed here change L27 of the VL, counted from its first residue. The read-out is the apparent dissociation constant on a log10 scale (nM): the lower, the stronger. A mean of the replicates is given; it leaves out those without a signal. Where no diploid with the target was found in any replicate, the entry reads "nd": below detection, most likely a poor binder, though not proof of it. For reference, the parent read 2.31 as the reference entry and 2.25 as a member of this library.

* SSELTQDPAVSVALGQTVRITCEGDSGRYYYANWYQQKPGQAPILVIYGKNNRPVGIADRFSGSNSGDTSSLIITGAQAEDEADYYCSSRDSSGFQCFFGAGTKLTVL: 3.15 (1 of 3 replicates; controls 4 of 9)
* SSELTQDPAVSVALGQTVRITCEGDSSRYYYANWYQQKPGQAPILVIYGRNNRPSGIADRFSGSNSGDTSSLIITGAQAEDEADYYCSSRDSSGFQVFFGAGTKLTVL: 3.59 (3 of 3 replicates; controls 4 of 9)
* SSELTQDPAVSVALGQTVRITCEGDSIRYGYINWYQQKPGQAPILVIYGKNNRPSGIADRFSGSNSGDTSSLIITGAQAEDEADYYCSSRDSSGFQVFFGAGTKLTVL: 3.14 (3 of 3 replicates; controls 3 of 9)
* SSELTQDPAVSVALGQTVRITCEGDSKIYYYANWYQQKPGQAPILVIYGKNNRPSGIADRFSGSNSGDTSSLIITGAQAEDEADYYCSSRDSSGFEVFFGAGTKLTVL: 5.35 (1 of 3 replicates; controls 5 of 9)
* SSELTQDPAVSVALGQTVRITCEGDSIRYYYANWYQQKPGQAPILVIYGKDNRPSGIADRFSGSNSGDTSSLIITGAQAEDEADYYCCSRDSSGFQVFFGAGTKLTVL: 3.57 (3 of 3 replicates; controls 5 of 9)
* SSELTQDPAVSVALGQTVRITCEGDSNRYYYRNWYQQKPGQAPILVIYGKNNRPSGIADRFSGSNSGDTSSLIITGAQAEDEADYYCSSRKSSGFQVFFGAGTKLTVL: 3.45 (3 of 3 replicates; controls 6 of 9)
* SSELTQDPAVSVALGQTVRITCEYDSRWYYYANWYQQKPGQAPILVIYGKNNRPSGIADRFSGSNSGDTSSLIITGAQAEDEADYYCSSRDSSGFQVFFGAGTKLTVL: 4.72 (1 of 3 replicates; controls 6 of 9)
* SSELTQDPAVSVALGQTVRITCEGVSARYYYANWYQQKPGQAPILVIYGKNNRPSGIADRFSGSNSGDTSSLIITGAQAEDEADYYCLSRDSSGFQVFFGAGTKLTVL: nd (0 of 3 replicates; controls 1 of 9)
* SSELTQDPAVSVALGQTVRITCEGDSFRYYYAGWYQQKPGQAPILVIYGKNNRPSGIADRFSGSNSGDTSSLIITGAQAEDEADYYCSSRWSSGFQVFFGAGTKLTVL: 3.97 (2 of 3 replicates; controls 1 of 9)
* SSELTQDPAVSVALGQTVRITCEWDSFRYYYANWYQQKPGQAPILVIYGKNNRPSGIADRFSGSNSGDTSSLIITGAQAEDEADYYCSSRDSSGFQVFFGAGTKLTVL: 2.68 (3 of 3 replicates; controls 3 of 9)
* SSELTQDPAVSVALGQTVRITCEGDSMRYYYANWYQQKPGQAPILVIYGKFQRPSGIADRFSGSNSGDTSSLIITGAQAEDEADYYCSSRDSSGFQVFFGAGTKLTVL: 4.51 (1 of 3 replicates; controls 3 of 9)
* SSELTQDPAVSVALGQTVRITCEGDSQRYYNAFWYQQKPGQAPILVIYGKNNRPSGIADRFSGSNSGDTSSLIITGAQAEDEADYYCSSRDSSGFQVFFGAGTKLTVL: 3.21 (1 of 3 replicates; controls 3 of 9)
* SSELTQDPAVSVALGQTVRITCEGDSFRYYYANWYQQKPGQAPILVIYGKNNRPSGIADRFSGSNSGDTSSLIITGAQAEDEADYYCSSRDSRGFQVFFGAGTKLTVL: 3.47 (3 of 3 replicates; controls 4 of 9)
* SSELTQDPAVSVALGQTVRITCEGDSYRYLYANWYQQKPGQAPILVIYGKWNRPSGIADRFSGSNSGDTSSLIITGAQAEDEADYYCSSRDSSGFQVFFGAGTKLTVL: nd (0 of 3 replicates; controls 1 of 9)
* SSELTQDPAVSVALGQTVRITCEGDSTRYYYANWYQQKPGQAPILVIYGKNNRPSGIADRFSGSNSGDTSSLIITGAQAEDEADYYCSSRDSSGFPVYFGAGTKLTVL: 2.67 (3 of 3 replicates; controls 5 of 9)
* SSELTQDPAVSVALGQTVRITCEGDSARYYYANWYQQKPGQAPILVIYGKNNRPSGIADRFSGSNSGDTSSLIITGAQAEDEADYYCSFRDSTGFQVFFGAGTKLTVL: 3.85 (2 of 3 replicates; controls 1 of 9)
* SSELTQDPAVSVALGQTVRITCEGDFSRYYYANWYQQKPGQAPILVIYGKNNRPSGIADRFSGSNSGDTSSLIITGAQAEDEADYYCSSRDSMGFQVFFGAGTKLTVL: 3.94 (1 of 3 replicates; controls 2 of 9)
* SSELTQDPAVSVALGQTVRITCEGDSSRYYYANWYQQKPGQAPILVIYGKNNRPLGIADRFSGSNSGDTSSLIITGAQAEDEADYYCSRRDSSGFQVFFGAGTKLTVL: 3.54 (3 of 3 replicates; controls 1 of 9)
* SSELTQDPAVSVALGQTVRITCEGDSERYYYANWYQQKPGQAPILVIYGKNNRPSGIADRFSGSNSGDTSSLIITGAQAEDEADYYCSSKDSSGFQVFFGAGTKLTVL: 3.77 (3 of 3 replicates; controls 4 of 9)
* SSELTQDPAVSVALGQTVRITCIGDSETYYYANWYQQKPGQAPILVIYGKNNRPSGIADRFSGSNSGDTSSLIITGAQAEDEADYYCSSRDSSGFQVFFGAGTKLTVL: 3.93 (2 of 3 replicates; controls 2 of 9)
* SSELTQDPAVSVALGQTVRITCEGDSPRYYYCNWYQQKPGQAPILVIYGKNNYPSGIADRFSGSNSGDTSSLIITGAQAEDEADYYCSSRDSSGFQVFFGAGTKLTVL: 3.57 (2 of 3 replicates; controls 4 of 9)
* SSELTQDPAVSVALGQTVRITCEGDSRRYYHANWYQQKPGQAPILVIYGKNNRPSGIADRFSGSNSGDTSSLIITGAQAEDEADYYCSSRDSSGTQVFFGAGTKLTVL: 3.84 (3 of 3 replicates; controls 1 of 9)
* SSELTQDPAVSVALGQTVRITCEGDSRRYCYANWYQQKPGQAPILVIYGKNNRPSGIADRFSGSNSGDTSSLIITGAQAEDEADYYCSHRDSSGFQVFFGAGTKLTVL: 4.64 (2 of 3 replicates; controls 3 of 9)
* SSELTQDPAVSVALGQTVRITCEYDSFRYYYANWYQQKPGQAPILVIYGKNNRPSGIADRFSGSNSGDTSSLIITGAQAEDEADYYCYSRDSSGFQVFFGAGTKLTVL: 4.75 (1 of 3 replicates; controls 6 of 9)
* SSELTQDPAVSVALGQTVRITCEGDSCRYYYANWYQQKPGQAPILVIYGKANRPSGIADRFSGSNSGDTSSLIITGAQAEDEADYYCSSRDSSGFQWFFGAGTKLTVL: 2.73 (1 of 3 replicates; controls 2 of 9)

For reference, 2 entries of the list once more:

* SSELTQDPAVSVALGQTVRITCEGDSTRYYYANWYQQKPGQAPILVIYGKNNRPSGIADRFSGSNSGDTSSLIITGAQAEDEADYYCSSRDSSGFPVYFGAGTKLTVL = 2.67 (3 of 3 replicates; controls 5 of 9)
* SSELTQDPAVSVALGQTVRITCEGVSARYYYANWYQQKPGQAPILVIYGKNNRPSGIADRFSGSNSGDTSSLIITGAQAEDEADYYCLSRDSSGFQVFFGAGTKLTVL = nd (0 of 3 replicates; controls 1 of 9)

Background: pairings of library AAYL52 with three empty control strains gave a value in 28% of cases (median 3.91, 5th percentile 2.90). Values in that range, when seen in few replicates, are hard to tell from nonspecific mating. For each scFv, signals with the empty controls are counted beside the result.

From the AlphaSeq antibody data of Engelhart et al. 2022 (doi:10.1038/s41597-022-01779-4), copy in the FLAb collection.